One test addresses GRPR (Homo sapiens, UniProt P30550). The test is classed as cell-based.
In a further test the target is NMBR (Homo sapiens, UniProt P28336). In words: [3H]IP production, NMBR agonist/antagonist. The test is classed as cell-based. Conditions: NCI-H727 (carcinoid), control 143 ± 21.

The chains behind the UniProt entries cited, without tags or fusion partners. Where a name states a change or a piece, a line headed by the entry shows the natural chain unless it says otherwise.
UniProt P30550: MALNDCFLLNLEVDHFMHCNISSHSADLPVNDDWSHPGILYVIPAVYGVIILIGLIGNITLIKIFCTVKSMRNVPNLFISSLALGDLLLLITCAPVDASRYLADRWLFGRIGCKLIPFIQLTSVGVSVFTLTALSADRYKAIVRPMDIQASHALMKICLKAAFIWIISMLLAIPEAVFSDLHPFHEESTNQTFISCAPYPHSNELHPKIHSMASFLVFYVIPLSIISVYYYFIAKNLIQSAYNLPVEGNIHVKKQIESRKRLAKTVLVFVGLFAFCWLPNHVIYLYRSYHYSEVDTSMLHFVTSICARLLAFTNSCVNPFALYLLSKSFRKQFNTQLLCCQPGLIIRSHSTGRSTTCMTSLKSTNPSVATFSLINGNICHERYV
UniProt P28336: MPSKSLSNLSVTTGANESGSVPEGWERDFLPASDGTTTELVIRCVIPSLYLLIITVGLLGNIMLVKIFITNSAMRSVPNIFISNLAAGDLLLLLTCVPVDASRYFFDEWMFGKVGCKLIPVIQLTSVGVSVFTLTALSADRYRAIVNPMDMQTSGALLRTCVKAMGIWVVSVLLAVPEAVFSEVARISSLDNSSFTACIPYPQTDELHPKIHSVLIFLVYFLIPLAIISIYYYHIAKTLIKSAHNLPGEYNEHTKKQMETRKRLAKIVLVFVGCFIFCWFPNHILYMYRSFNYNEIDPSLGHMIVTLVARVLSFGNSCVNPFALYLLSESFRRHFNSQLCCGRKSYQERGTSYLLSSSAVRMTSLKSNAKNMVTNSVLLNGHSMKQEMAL

Like-named read-outs stand apart in the source and are kept apart here.

In the case of [D-Phe^6]Bombesin-(6–13)-methyl ester, the “[3H]IP (DPM)” value on GRPR (Peptide #1 (10 nM) + ME 1 μM, NCI-H69 (SCLC), control 177 ± 27) is 476 ± 128 DPM; at GRPR (Peptide #1 (10 nM) + ME 1 μM, NCI-H727 (carcinoid), control 143 ± 21) it was 189 ± 56 DPM.

As to gastrin-releasing peptide [GRP], the “[3H]IP (DPM)” value on GRPR (GRP 100 nM, NCI-H69 (SCLC), control 177 ± 27) came to 180 ± 19 DPM; on GRPR (GRP 100 nM, NCI-H727 (carcinoid), control 143 ± 21) it was 254 ± 40 DPM; at GRPR (GRP 1 μM, NCI-H69 (SCLC), control 177 ± 27) it was 200 ± 41 DPM; at GRPR (GRP 1 μM, NCI-H727 (carcinoid), control 143 ± 21) it was 164 ± 32 DPM.

For the substance neuromedin B [NMB], the “[3H]IP (DPM)” value on NMBR (NMB 100 nM) is reported as 278 ± 48 DPM; on NMBR (NMB 1 μM), 178 ± 30 DPM.

The record behind these values is paper PMC6159918 (Peptides, 2018).
